The record followed here is ChEMBL document CHEMBL1126095, “Incorporation of a novel conformationally restricted tyrosine analog into a cyclic, delta opioid receptor selective tetrapeptide (JOM-13) enhances delta receptor binding affinity and selectivity” (J Med Chem, 1992).

By UniProt entry, the sequences of proteins in these tests, tags left out. Where a name states a change or a piece, a line headed by the entry shows the natural chain unless it says otherwise.
UniProt P41144: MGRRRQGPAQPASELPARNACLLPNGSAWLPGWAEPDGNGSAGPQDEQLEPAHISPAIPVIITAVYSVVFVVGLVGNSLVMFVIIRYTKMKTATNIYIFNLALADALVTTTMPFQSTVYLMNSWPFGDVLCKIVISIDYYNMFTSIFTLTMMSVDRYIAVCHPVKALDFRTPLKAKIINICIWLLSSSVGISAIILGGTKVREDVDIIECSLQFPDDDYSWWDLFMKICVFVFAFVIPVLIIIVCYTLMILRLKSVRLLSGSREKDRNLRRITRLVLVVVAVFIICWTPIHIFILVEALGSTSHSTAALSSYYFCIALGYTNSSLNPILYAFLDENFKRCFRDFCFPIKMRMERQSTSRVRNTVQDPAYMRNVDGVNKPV

As a reminder, the Ki is the equilibrium dissociation constant of an inhibitor or competing ligand from its target.

In the experiment the target is Kappa-type opioid receptor (Cavia porcellus, UniProt P41144). Nature of the experiment: Binding affinity against opioid receptor kappa from guinea pig brain homogenates, using [3H]U-69593 as radioligand. The class given is tissue-based.

Compound `CC1(C)SSC[C@H](NC(=O)[C@@H](N)Cc2ccc(O)cc2)C(=O)N[C@@H](Cc2ccccc2)C(=O)N[C@@H]1C(=O)O` showed a Ki of over 10 µM.
